One data set can be described thus: Thermal decomposition onset (T5% onset) by TGA.
Settings: not given
The substance “Cetylpyridinium Salicylate-clofibrate [Example 22]” showed a T5% onset of 197 °C.

In turn, “Cetylpyridinium Salicylate-ibuprofenate [CetPySalIbuH]” came in with a T5% onset of 173 °C.

For the substance “Tetrabutylphosphonium Ibuprofenate-niacin [P(Bu)4[IbuNia]H]”, the T5% onset was determined as 201 °C.

For the substance “Tetrabutylphosphonium Salicylate [P(Bu)4:Sal 1:1]”, the T5% onset was determined as 312 °C.

“Tetrabutylphosphonium Salicylate-camphorsulfonic Acid [Example 15]” displayed a T5% onset of 203 °C.

As to “Tetrabutylphosphonium Salicylate-cinnamic Acid [Example 17]”, the T5% onset was determined as 191 °C.

For the substance “Tetrabutylphosphonium Salicylate-ibuprofenic Acid [Example 14]”, the T5% onset was found to be 181 °C.

Turning to “Tetrabutylphosphonium Salicylate-lactic Acid [Example 16]”, the T5% onset worked out at 178 °C.

The same data set, now with this note: TGA/DSC, 25° C. to 600° C. with 5° C./min under nitrogen; choline salicylate-salicylic acid co-ionic liquids.
Regarding “Choline Salicylate-salicylic Acid [Cho:Sal 1:2]”, the T5% onset was 173 °C.

The data set is the same for the next values; noted with them: TGA/DSC, 25° C. to 600° C. with 5° C./min under nitrogen; tetrabutylphosphonium ibuprofenate-ibuprofenic co-ionic liquids.
For “Tetrabutylphosphonium Ibuprofenate-ibuprofenic Acid [P(Bu)4Ibu 1:2]”, the T5% onset was determined as 264 °C.

Turning to “Tetrabutylphosphonium Ibuprofenate-ibuprofenic Acid [P(Bu)4Ibu 1:3]”, the T5% onset worked out at 189 °C.

The data set is the same for the next values; noted with them: TGA/DSC, 25° C. to 600° C. with 5° C./min under nitrogen; tetrabutylphosphonium salicylate-salicylic acid co-ionic liquids.
Substance “Tetrabutylphosphonium Salicylate [P(Bu)4:Sal 1:1]” showed a T5% onset of 312 °C.

On to “Tetrabutylphosphonium Salicylate-Salicylic Acid [P(Bu)4:Sal 1:1.1]”, for which the T5% onset was found to be 297 °C.

As for “Tetrabutylphosphonium Salicylate-Salicylic Acid [P(Bu)4:Sal 1:1.2]”, the T5% onset came to 211 °C.

“Tetrabutylphosphonium Salicylate-Salicylic Acid [P(Bu)4:Sal 1:1.3]” came in with a T5% onset of 207 °C.

“Tetrabutylphosphonium Salicylate-Salicylic Acid [P(Bu)4:Sal 1:1.4]” registered a T5% onset of 209 °C.

“Tetrabutylphosphonium Salicylate-Salicylic Acid [P(Bu)4:Sal 1:1.5]” registered a T5% onset of 206 °C.

In turn, “Tetrabutylphosphonium Salicylate-Salicylic Acid [P(Bu)4:Sal 1:1.6]” registered a T5% onset of 200 °C.

On to “Tetrabutylphosphonium Salicylate-Salicylic Acid [P(Bu)4:Sal 1:1.7]”, for which the T5% onset turned out to be 194 °C.

As to “Tetrabutylphosphonium Salicylate-Salicylic Acid [P(Bu)4:Sal 1:1.8]”, the T5% onset was 198 °C.

“Tetrabutylphosphonium Salicylate-Salicylic Acid [P(Bu)4:Sal 1:1.9]” showed a T5% onset of 198 °C.

In the case of “Tetrabutylphosphonium Salicylate-Salicylic Acid [P(Bu)4:Sal 1:2.4]”, the T5% onset is 184 °C.

As for “Tetrabutylphosphonium Salicylate-Salicylic Acid [P(Bu)4:Sal 1:2.7]”, the T5% onset was determined as 173 °C.

With “Tetrabutylphosphonium Salicylate-Salicylic Acid [P(Bu)4:Sal 1:2.8]”, the T5% onset came out at 169 °C.

Take “Tetrabutylphosphonium Salicylate-Salicylic Acid [P(Bu)4:Sal 1:2]”: the T5% onset came out at 192 °C.

For “Tetrabutylphosphonium Salicylate-Salicylic Acid [P(Bu)4:Sal 1:3.0]”, the T5% onset is 164 °C.

Substance “Tetrabutylphosphonium Salicylate-Salicylic Acid [P(Bu)4:Sal 1:3.7]” showed a T5% onset of 150 °C.
